# Reference: ChEMBL document CHEMBL1131493, “Inhibitors of farnesyl protein transferase. 4-Amido, 4-carbamoyl, and 4-carboxamido derivatives of 1-(8-chloro-6,11-dihydro-5H-benzo[5,6]- cyclohepta[1,2-b]pyridin-11-yl)piperazine and 1-(3-bromo-8-chloro-6,11- dihydro-5H-benzo[5,6]cyclohepta[1,2-b]pyridin-11-yl)piperazine” (J Med Chem, 1998)
# Tests used:
# [1] = biological target: T1, Protein farnesyltransferase (Homo sapiens, UniProt P49354+P49356); experiment: Inhibition of Farnesyltransferase from Ras-CVLS or Ras-CVLL in Cos-7 monkey kidney cells; format: cell-based, Chlorocebus aethiops
# [2] = biological target: T1, Protein farnesyltransferase; experiment: In vitro inhibition of farnesyltransferase farnesylation of the H-ras oncogene; format: protein-complex assay
# [3] = biological target: T1, Protein farnesyltransferase; experiment: In vitro inhibition of Ha-ras farnesylation in Ha-ras-transformed NIH3T3 cells; format: cell-based
# [4] = biological target: T1, Protein farnesyltransferase; experiment: In vitro inhibition of Ha-ras farnesylation in Ki-ras-transformed NIH3T3 cells; format: cell-based
# [5] = biological target: T1, Protein farnesyltransferase; experiment: (§1) In vitro inhibition of Ha-ras farnesylation in DLD-1 cells; format: cell-based
# [6] = biological target: T1, Protein farnesyltransferase; experiment: as §1; format: cell-based; remark: listed apart in the source
IC50 [1],SMILES,IC50 [2],further results
590 nM,NC(=O)N1CCC(CC(=O)N2CCN(C3c4ccc(Cl)cc4CCc4cc(Br)cnc43)CC2)CC1 (centres undefined),49 nM,–
10500 nM,O=C(Nc1ccncc1)N1CCN(C2c3ccc(Cl)cc3CCc3cccnc32)CC1 (centres undefined),–,–
–,O=C(Cc1ccc(Br)cc1)N1CCN(C2c3ccc(Cl)cc3CCc3cccnc32)CC1 (centres undefined),2040 nM,–
–,O=C(Cc1cc[n+]([O-])cc1)N1CCN(C2c3ccc(Cl)cc3CCc3cc(Br)cnc32)CC1 (centres undefined),47 nM,IC50 [3]: 1200 nM; IC50 [4]: 4000 nM
–,CN(C)c1ccc(CC(=O)N2CCN(C3c4ccc(Cl)cc4CCc4cccnc43)CC2)cc1 (centres undefined),2440 nM,–
–,O=C(Cc1cccnc1)N1CCN([C@@H]2c3ccc(Cl)cc3CCc3cccnc32)CC1,2100 nM,–
700 nM,CN1CCC(CC(=O)N2CCN([C@@H]3c4ccc(Cl)cc4CCc4cc(Br)cnc43)CC2)CC1,54 nM,–
–,CN1CCC(CC(=O)N2CCN(C3c4ccc(Cl)cc4CCc4cc(Br)cnc43)CC2)CC1 (centres undefined),120 nM,–
–,O=C(Cc1ccc[n+]([O-])c1)N1CCN([C@@H]2c3ccc(Cl)cc3CCc3cccnc32)CC1,7000 nM,–
900 nM,CN1CCC(CC(=O)N2CCN([C@H]3c4ccc(Cl)cc4CCc4cc(Br)cnc43)CC2)CC1,50 nM,–
–,CCOC(=O)N1CCC(C(=O)N2CCN(C3c4ccc(Cl)cc4CCc4cccnc43)CC2)CC1 (centres undefined),13300 nM,–
–,O=C(Cc1ccncc1)N1CCN([C@H]2c3ccc(Cl)cc3CCc3cccnc32)CC1,140 nM,–
–,O=C(Cc1ccc[n+]([O-])c1)N1CCN(C2c3ccc(Cl)cc3CCc3cc(Br)cnc32)CC1 (centres undefined),400 nM,–
–,O=C(Cc1ccncc1)N1CCN([C@@H]2c3ccc(Cl)cc3CCc3cccnc32)CC1,490 nM,–
–,O=C(Cc1ccncc1)N1CCN(C2c3ccc(Cl)cc3CCc3cccnc32)CC1 (centres undefined),160 nM,–
–,O=C(Cc1ccc[n+]([O-])c1)N1CCN([C@H]2c3ccc(Cl)cc3CCc3cccnc32)CC1,2300 nM,–
39900 nM,O=C(CN1C(=O)c2ccccc2C1=O)N1CCN(C2c3ccc(Cl)cc3CCc3cccnc32)CC1 (centres undefined),–,–
–,O=C(Cc1cccnc1)N1CCN([C@H]2c3ccc(Cl)cc3CCc3cccnc32)CC1,190 nM,–

SMILES,IC50 [1],IC50 [2],further results
O=C(Cc1ccc[n+]([O-])c1)N1CCN(C2c3ccc(Cl)cc3CCc3cccnc32)CC1 (centres undefined),11100 nM,1170 nM,–
O=C(Cc1cccnc1)N1CCN(C2c3ccc(Cl)cc3CCc3ccc[n+]([O-])c32)CC1 (centres undefined),11500 nM,910 nM,–
O=C(Cc1cccnc1)N1CCN(C2c3ccc(Cl)cc3CCc3cccnc32)CC1 (centres undefined),6220 nM,530 nM,–
O=C(Cc1cc[n+]([O-])cc1)N1CCN([C@H]2c3ccc(Cl)cc3CCc3cc(Br)cnc32)CC1,125 nM,–,IC50 [5]: 7000 nM; IC50 [6]: 8000 nM; IC50 [3]: 1500 nM; IC50 [4]: 6500 nM
